Experimental data reported in BindingDB's records for PubMed 7965790 (University of Nebraska, 1994).

Amino acid sequences for entries named in this document (tags omitted). Residues count along the entry.
UniProt P18871, 16-465: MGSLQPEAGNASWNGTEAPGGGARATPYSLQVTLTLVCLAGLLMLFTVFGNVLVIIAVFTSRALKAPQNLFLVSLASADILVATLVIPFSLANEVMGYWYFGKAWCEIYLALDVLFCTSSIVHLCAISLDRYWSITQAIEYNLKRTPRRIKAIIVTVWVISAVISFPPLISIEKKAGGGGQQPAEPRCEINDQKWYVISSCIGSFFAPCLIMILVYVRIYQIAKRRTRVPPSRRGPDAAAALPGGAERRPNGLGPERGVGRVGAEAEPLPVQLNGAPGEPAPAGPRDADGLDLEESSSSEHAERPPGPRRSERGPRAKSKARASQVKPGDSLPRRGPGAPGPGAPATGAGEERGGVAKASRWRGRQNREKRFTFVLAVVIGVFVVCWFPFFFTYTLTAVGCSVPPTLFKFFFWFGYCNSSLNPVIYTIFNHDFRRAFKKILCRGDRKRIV

Target: Alpha-2A adrenergic receptor (Sus scrofa, UniProt P18871)

Ki: 0.37 nM
Compound: COC(=O)[C@@H]1[C@H]2C[C@H]3c4[nH]c5ccccc5c4CCN3C[C@@H]2CC[C@@H]1O [yohimbic acid methyl ester]
